This is a selection; strong and weak results do not stand in their true shares. Activity calls are given as the source filed them. Calls come from the whole dose curve; as a rule, active = well fitted activation curve with a large enough effect; inconclusive = small, poorly fitted or top-dose-only effect; inactive = no such curve, though single readings can be large or run the other way.
assay: qHTS Assay to Identify Small Molecule Activators of BRCA1 Expression; conditions: MCF7-BRCA1-FFLuc reporter, luminescence, 48 h, scaled: vehicle 0%, 10 µM genistein 100%; at 46.1 µM (top of the series); note: nearly all actives have a fitted effect of over 80% in size

Row | SMILES | activation
1 | Cc1ccc(Nc2c([N+](=O)[O-])cc([N+](=O)[O-])cc2[N+](=O)[O-])cc1 | inactive: -66.8%
2 | Fc1ccccc1NC1CCN(Cc2ccccc2)CC1 | inactive: 5.86%
3 | Cc1ccc(C(=O)NCC2(N3CCCCC3)CCCCC2)o1 | inactive: 0.3%
4 | Cc1ccc(NC2(C#N)CCN(Cc3ccccc3)CC2)cc1 | inactive: -3.97%
5 | CCC(c1nnnn1C1CCCCC1)N1CCC(n2c(=O)[nH]c3ccccc32)CC1 (stereo not given) | inactive: 4.3%
6 | CC(=O)N(c1ccccc1)C1CCNCC1 | inactive: -3.95%
7 | COc1cccc(C(c2nnnn2C2CCCCC2)N2CCC(n3c(=O)[nH]c4ccccc43)CC2)c1OC (stereo not given) | inactive: -27.2%
8 | O=c1[nH]c2ccccc2n1C1CCN(C(c2ccnc3ccccc23)c2nnnn2C2CCCCC2)CC1 (stereo not given) | inactive: -42.7%
9 | COc1cc(OC)cc(C(=O)NCC2(N3CCCCC3)CCCCC2)c1 | inactive: -3.5%
10 | CC(C)(C)n1nnnc1C(c1cccc2ccccc12)N1CCC(n2c(=O)[nH]c3ccccc32)CC1 (stereo not given) | inactive: -62.7%
11 | CN(C)C1(CNC(=O)c2cccc(C#N)c2)CCCCC1 | inactive: 5.23%
12 | O=c1[nH]c2ccccc2n1C1CCN(C(c2ccccc2)c2nnnn2C2CCCC2)CC1 (stereo not given) | inactive: -19.1%
13 | CCCN1CCC(Nc2cc(OC)cc(OC)c2)CC1 | inactive: -22.5%
14 | Cc1cc(N(CCCl)CCCl)ccc1C=O | inactive: -48.7%
15 | O=C(NCC1(N2CCOCC2)CCCCC1)c1ccccc1 | inactive: 3.91%
16 | c1ccc(CN2CCC(Nc3ccccc3)CC2)cc1 | inactive: -7.21%
17 | CCOC(=O)C(CC)C1=NC(C)(C)Cc2ccccc21.O=[N+]([O-])c1cc([N+](=O)[O-])c(O)c([N+](=O)[O-])c1 (stereo not given) | inactive: 3.8%
18 | N#Cc1ccc(C(=O)NCC2(N3CCCCC3)CCCCC2)cc1 | inactive: 17%

Row | SMILES | activation
19 | O=C(NCC1(N2CCOCC2)CCCCC1)c1ccccc1[N+](=O)[O-] | inactive: 0.515%
20 | O=C(NCC1(N2CCOCC2)CCCCC1)c1ccc([N+](=O)[O-])cc1 | inactive: -27.7%
21 | CC(C)(C)OC(=O)N1CCC(N(C(=O)c2ccccc2)c2ccc(Cl)cc2)CC1 | inactive: -36.7%
22 | O=C(O)c1cccc(Nc2c([N+](=O)[O-])cc([N+](=O)[O-])cc2[N+](=O)[O-])c1 | inactive: -25%
23 | O=c1[nH]c2ccccc2n1C1CCN(C(c2cccs2)c2nnnn2C2CCCC2)CC1 (stereo not given) | inactive: -34.1%
24 | O=C(OC1CN2CCC1CC2)C1c2ccccc2C=Cc2ccccc21 (stereo not given) | inactive: -18.2%
25 | CCc1cc(C(=O)NCC2(N3CCCCC3)CCCCC2)sc1C | inactive: -78.9%
26 | CCCCn1nnnc1C(c1cccc(OC)c1OC)N1CCC(n2c(=O)[nH]c3ccccc32)CC1 (stereo not given) | inactive: -46.5%
27 | COc1cccc(C(c2nnnn2C(C)(C)C)N2CCC(n3c(=O)[nH]c4ccccc43)CC2)c1OC (stereo not given) | inactive: -21.9%
28 | CCOC(=O)N1CCC(Nc2ccc(C)cc2)CC1 | inactive: 5.69%
29 | N/C(=N\O)c1c(N)no[n+]1[O-] | inactive: 3.56%
30 | O=c1[nH]c2ccccc2n1C1CCN(C(c2cccs2)c2nnnn2C2CCCCC2)CC1 (stereo not given) | inactive: -44.9%
31 | O=c1[nH]c2ccccc2n1C1CCN(C(c2ccnc3ccccc23)c2nnnn2C2CCCC2)CC1 (stereo not given) | inactive: -0.248%
32 | COc1ccc(C(=O)NCC2(N3CCOCC3)CCCCC2)cc1OC | inactive: -2.68%
33 | COc1cc(C(=O)NCC2(N3CCOCC3)CCCCC2)cc(OC)c1C | inactive: -9.73%
34 | CCCCn1nnnc1C(c1ccccc1)N1CCC(n2c(=O)[nH]c3ccccc32)CC1 (stereo not given) | inactive: 0%
35 | O=C(NCC1(N2CCOCC2)CCCCC1)c1cc(Br)ccc1Cl | inactive: -26.8%
